Assay: Solubility of EGCG with Pluronic F127 (HPLC)
Conditions: for EGCG (mg/ml) solubility: 50 mg/ml EGCG

epigallocatechin-3-gallate [EGCG]
EGCG (mg/ml) solubility (F127 2 % weight/volume): 0.87 mg/mL
EGCG (mg/ml) solubility (F127 4 % weight/volume): 7.24 mg/mL
EGCG (mg/ml) solubility (F127 6 % weight/volume): 16.37 mg/mL
EGCG (mg/ml) solubility (F127 8 % weight/volume): 43.88 mg/mL
solubility in 8% Pluronic F127 relative to that in water (8% Pluronic F127 vs water): 105 times
water solubility (free EGCG (containing 90% of catechin), water): 480 µg/mL
EGCG content of stable aqueous dispersions (with Pluronic F127): more than 50 mg/ml

Source: US9308270B2, “Pharmaceutical composition on the basis of nanomicelles containing epigallocatechin gallate and a method of administration thereof to treat atopic dermatitis, Crohn's disease, adenomyosis, and hyperplastic diseases of the prostate gland” (NORDIC LABS LIMITED, priority 2011, dated 2016)
